From the NIST ThermoML archive (doi:10.1016/j.jct.2012.09.006)
± gives the expanded uncertainty stated by the source.

Tests used:
[1] = Molar enthalpy of transition or fusion; settings: Crystal; DSC
[2] = Crystal; DTA

For `O=C(O)c1ccccc1O` [2-hydroxybenzoic acid], the “Molar enthalpy of transition or fusion” value [1] was 5.75 ± 0.153 kcal/mol and the Normal melting temperature [2] was 158.7 ± 0.9 °C.
